These results are taken from US9040714B2 (MannKind Corporation, priority 2010, dated 2015).

Protein sequences, listed by entry. Tags and fused reporters are not part of them. Residues count along the entry.
UniProt O75460, 19-977: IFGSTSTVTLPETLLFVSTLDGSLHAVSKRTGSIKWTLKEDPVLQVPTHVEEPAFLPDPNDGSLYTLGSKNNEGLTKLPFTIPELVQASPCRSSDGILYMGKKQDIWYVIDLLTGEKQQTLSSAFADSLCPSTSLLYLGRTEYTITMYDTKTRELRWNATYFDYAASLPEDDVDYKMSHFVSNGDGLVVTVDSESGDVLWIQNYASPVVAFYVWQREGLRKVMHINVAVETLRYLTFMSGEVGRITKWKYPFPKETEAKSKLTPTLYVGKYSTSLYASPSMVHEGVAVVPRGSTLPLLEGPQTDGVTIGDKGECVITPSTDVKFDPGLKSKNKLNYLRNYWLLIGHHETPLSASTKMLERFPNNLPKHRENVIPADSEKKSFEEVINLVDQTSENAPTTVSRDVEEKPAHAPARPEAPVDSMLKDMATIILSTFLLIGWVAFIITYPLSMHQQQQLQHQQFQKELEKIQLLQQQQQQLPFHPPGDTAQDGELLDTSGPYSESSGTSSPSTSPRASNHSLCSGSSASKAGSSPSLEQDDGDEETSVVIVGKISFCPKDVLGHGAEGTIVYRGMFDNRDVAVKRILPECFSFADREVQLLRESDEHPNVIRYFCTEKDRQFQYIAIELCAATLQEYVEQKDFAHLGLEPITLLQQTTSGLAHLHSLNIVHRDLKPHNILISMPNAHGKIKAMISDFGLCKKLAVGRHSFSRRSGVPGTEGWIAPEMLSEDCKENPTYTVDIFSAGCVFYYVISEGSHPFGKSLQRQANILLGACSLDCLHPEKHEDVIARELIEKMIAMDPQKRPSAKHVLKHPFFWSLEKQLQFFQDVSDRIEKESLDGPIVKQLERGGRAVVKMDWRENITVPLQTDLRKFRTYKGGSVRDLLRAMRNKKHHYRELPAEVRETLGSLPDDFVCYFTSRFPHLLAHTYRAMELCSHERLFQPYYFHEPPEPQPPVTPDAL

This test addresses human IRE-1α (GST-IRE-1α) (Homo sapiens (Human), UniProt O75460). The test can be described thus: IRE-1α assay in vitro: cleavage of Cy5/BHQ2-labelled mini-XBP-1 mRNA stem-loop substrate. The format is biochemical. The settings on record: average IC50 for inhibition of IRE-1α. An excerpt: The compounds are understood to act through inhibition of the RNAse activity of the enzyme. In some embodiments IRE-la inhibitor compounds form a complex with IRE-1α. In particular embodiments this activity is detected as cleavage of a human mini-XBP-1 mRNA stem-loop substrate 5′-CAGUCCGCAGGACUG-3′ (SEQ ID NO:1) by IRE-1α in vitro by 10 to 100%. Other substrates also can be used to detect cleavage. See US 2007/0105123.
A fusion protein comprising glutathione S transferase (GST) and human IRE-1α (GST-IRE-1α) obtained from a 500 ml baculovirus-infected insect cell culture can be used to measure IRE-1α activity in vitro.
Five μl of a reaction mixture comprising IX reaction buffer (5× reaction buffer is 100 mM Hepes pH 7.5, 250 mM KOAc, 2.5 mM MgCl2), 3 mM DTT, and 0.4% polyethylene glycol water is added to each well of 384 well plates. Twenty-five nanoliters of a 1 mM test compound solution are added to test wells. Three μl of a […] IRE-1α preparation are added to each test well and to positive control wells (final concentration 5.82 ng/well). […]
The plates are covered with lids and incubated for one hour at 30° C. The plates are then transferred to an ACQUEST™ microplate reader. Data is analyzed using data analysis software, and the percent activity of IRE-1α is calculated.
IC50 for inhibition of IRE-1α of compounds identified in Table 1 was measured as described in EXAMPLE 35.

The structures appear in SMILES notation.

With `COc1cc2c(C)c(CC(=O)N3CCOCC3)c(=O)oc2c(C=O)c1O` [Example 167], the IC50 (usually the midpoint of a concentration-inhibition curve) was less than 100 nM.
